In patent US20100040597A1:

Tests used:
[1] = target: soluble TM (thrombomodulin); assay: cuvette biosensor, thrombin mutant immobilised on NHS-activated CM dextran (about 1,800 arc), 50 nM soluble TM, 10 min
[2] = target: soluble TM (thrombomodulin); assay: cuvette biosensor, 50 nM soluble TM, normalised to 1000 arc sec of immobilised thrombin mutant
[3] = target: soluble TM (thrombomodulin); assay: cuvette biosensor, thrombin mutant immobilised on NHS-activated CM dextran (about 1,365 arc), 50 nM soluble TM, 10 min

Substance	TM adsorbed after 10 minutes [1]	TM adsorbed, immobilized amount set to 1000 arc sec [2]	TM adsorbed after 10 minutes [3]
65A43A205A thrombin (from UniProt P00734 315-363; P00734 364-622) (enzyme)	18 arc sec	10 arc sec	
69Q65A43A205A thrombin (from UniProt P00734 315-363; P00734 364-622) (enzyme)		5.8 arc sec	8 arc sec
